Experimental data from patent publication US8975265B2, “Substituted imidazo[1,2-a]pyrimidines and —pyridines” (Bayer Intellectual Property GmbH, priority 2010, dated 2015).

Chains of the proteins cited; added tags and fusions are not shown. Lines headed by an entry give the natural chain unless they say otherwise; changes in a name come on top.
UniProt P31749: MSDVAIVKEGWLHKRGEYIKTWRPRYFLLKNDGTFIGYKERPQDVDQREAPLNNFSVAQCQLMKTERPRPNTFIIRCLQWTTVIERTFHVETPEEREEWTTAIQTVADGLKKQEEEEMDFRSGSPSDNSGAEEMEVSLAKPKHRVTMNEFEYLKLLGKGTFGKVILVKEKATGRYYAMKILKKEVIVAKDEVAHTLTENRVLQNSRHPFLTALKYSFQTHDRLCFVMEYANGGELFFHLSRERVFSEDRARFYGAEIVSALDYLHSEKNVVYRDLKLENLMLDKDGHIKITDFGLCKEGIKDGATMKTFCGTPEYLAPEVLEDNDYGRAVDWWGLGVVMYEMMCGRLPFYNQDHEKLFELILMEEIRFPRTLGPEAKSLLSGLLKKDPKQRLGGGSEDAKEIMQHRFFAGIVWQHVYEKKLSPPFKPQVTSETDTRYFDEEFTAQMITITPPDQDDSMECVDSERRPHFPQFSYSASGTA

Each compound was assayed on KPL-4 breast cancer cell line (assay: Tumor cell proliferation assay (CellTiter-Glo, 72 h), KPL-4). Settings: KPL4, 72h drug exposure.
Assay type: cell-based
Method: Biological Assay 4.0: Tumor Cell Proliferation Assays
Compounds were tested in a cell-based assay that measures the capacity of the compounds to inhibit tumour cell proliferation following a 72h drug exposure. Cell viability is determined using CellTiter-Glow® (CTG, Promega, cat# G7571/2/3). The CellTiter-Glo® Luminescent Cell Viability Assay is a homogeneous method to determine the number of viable cells in culture. Detection is based on using the luciferase reaction to measure the amount of ATP from viable cells. The amount of ATP in cells correlates with cell viability. Within minutes after a loss of membrane integrity, cells lose the ability to synthesize ATP, and endogenous ATPases destroy any remaining ATP; thus the levels of ATP fall precipitously.
For each cell line assayed, cells were plated onto a separate plate for determination of […] at t=0 hour and t=72 hour time points. Following overnight incubation at 37° C., chemiluminescence values for the t=0 samples were determined after adding 10 μl medium and 100 μl CTG solution according to manufacture protocol. Plates for the t=72 hour time points were treated with compounds diluted into growth medium at ten times final concentration added in 10 μL to the cell culture plate. Cells were then incubated for 72 hours at 37° C. Chemiluminescence values for the t=72 hour samples were determined. […]
With `Cn1cc(-c2ccc3nc(-c4ccc(C5(N)CCC5)cc4)c(-c4ccccc4)n3c2)cn1` [Example 2-134] the IC50 was 2100 nM.

Each compound was assayed against His-tagged human recombinant kinase full-length Akt1 (Homo sapiens (Human), UniProt P31749) (assay: Akt1 kinase assay (TR-FRET)). Settings: 10 μM ATP; read-out: Akt1, median IC50.
Assay type: biochemical
Method: Biological Assay 1.0: Akt1 Kinase Assay
Akt1 inhibitory activity of compounds of the present invention was quantified employing the Akt1 TR-FRET assay as described in the following paragraphs.
As substrate for the kinase reaction the biotinylated peptide biotin-Ahx-[…] (C-terminus in amide form) was used which can be purchased e.g. from the company Biosynthan GmbH (Berlin-Buch, Germany).
For the assay 50 nl of a 100 fold concentrated solution of the test compound in DMSO was pipetted into a black low volume 384 well microtiter plate (Greiner Bio-One, Frickenhausen, Germany), 2 μl of a solution of Akt1 in assay buffer [50 mM TRIS/HCl pH 7.5, 5 mM MgCl2, 1 mM dithiothreitol, 0.02% (v/v) Triton X-100 (Sigma)] were added and the mixture was incubated for 15 min at 22° C. to allow prebinding of the test compounds to the enzyme before the start of the kinase reaction. […] The concentration of Akt1 in the assay was adjusted depending of the activity of the enzyme lot and was chosen appropriate to have the assay in the linear range, typical enzyme concentrations were in the range of about 0.05 ng/μl (final conc. in the 5 μl assay volume).
The resulting mixture was incubated 1 h at 22° C. to allow the binding of the biotinylated phosphorylated peptide to the streptavidine-XL665 and the antibodies. Subsequently the amount of phosphorylated substrate was evaluated by measurement of the resonance energy transfer from the anti-mouse-IgG-Eu-Chelate to the streptavidine-XL665.
Compound `NC1(c2ccc(-c3nc4cc(-c5ccccn5)ccn4c3-c3ccccc3)cc2)CCC1` [Example 2-111] has an IC50 of 204 nM. `NC1(c2ccc(-c3nc4cc(-c5cnc[nH]5)ccn4c3-c3ccccc3)cc2)CCC1` [Example 2-115] showed an IC50 of 212 nM. For `NC1(c2ccc(-c3nc4ccc(-c5cn[nH]c5)cn4c3-c3ccccc3)cc2)CCC1` [Example 2-132], the IC50 was 219 nM. For `Cn1cncc1-c1ccc2nc(-c3ccc(C4(N)CCC4)cc3)c(-c3ccccc3)n2c1` [Example 2-133], the IC50 was 2320 nM. Work on `NC1(c2ccc(-c3nc4ccc(Cl)cn4c3-c3ccccc3)cc2)CCC1` [Example 2-140] yielded an IC50 of 36 nM. `COc1cc(OC)c2nc(-c3ccc(C4(N)CCC4)cc3)c(-c3ccccc3)n2c1` [Example 2-146] showed an IC50 of 23 nM. `NC(=O)Nc1ccc2nc(-c3ccc(C4(N)CCC4)cc3)c(-c3ccccc3)n2c1` [Example 2-157] showed an IC50 of 256 nM.
